Consider one substance from US20240018220A1.

Test [1] addresses purified human C5 (human) (UniProt P01031). Nature of the test: SEC-MALS of eculizumab + C5 + crovalimab mimetic; hypothetical complex drawn with 4 antibodies and 3 C5; predicted size 1278 kDa.
Test [2] has the same target. As to the kind of experiment: SEC-MALS in PBS; crovalimab mimetic 3500 nM + C5 + eculizumab; peak near 11.1 min; the complex also holds eculizumab [panel D].
For test [3] the target is unchanged. As to the kind of experiment: SEC-MALS in PBS; crovalimab mimetic 3500 nM + C5 + eculizumab; small peak near 9.8 min; the complex also holds eculizumab [panel D]. For orientation: Size exclusion chromatography separates by hydrodynamic size, large species first.
For test [4] the target is unchanged. As to the kind of experiment: SEC-MALS in PBS; crovalimab mimetic 700 nM + C5 400 nM + eculizumab 700 nM; the arrow points to the shoulder near 9.2 min; the complex also holds eculizumab [panel C].
Test [5] shares this target. As to the kind of experiment: SEC-MALS of eculizumab + C5 + crovalimab mimetic; hypothetical complex drawn with 2 antibodies and 1 C5; predicted size 532 kDa.
Test [6] has the same target. As to the kind of experiment: SEC-MALS in PBS; crovalimab mimetic 700 nM + C5 400 nM + eculizumab 700 nM; given to the peak near 11.1 min by order of elution and by FIG. 5; the complex also holds eculizumab [panel C].
Test [7] has the same target. Nature of the test: SEC-MALS in PBS; crovalimab mimetic 700 nM + C5 400 nM + eculizumab 700 nM; peak near 10.3 min; the complex also holds eculizumab [panel C].
The target is the same in test [8]. Nature of the test: SEC-MALS in PBS; crovalimab mimetic 700 nM + C5 400 nM + eculizumab 700 nM; peak near 9.7 min; the complex also holds eculizumab [panel C].
Test [9] shares this target. Nature of the test: SEC-MALS in PBS; crovalimab mimetic 3500 nM + C5 + eculizumab; peak near 10.3 min; the complex also holds eculizumab [panel D].
Test [10] shares this target. As to the kind of experiment: SEC-MALS of eculizumab + C5 + crovalimab mimetic; hypothetical complex drawn with 3 antibodies and 2 C5; predicted size 907 kDa.
The target is the same in test [11]. Nature of the test: SEC-MALS in PBS; crovalimab mimetic 3500 nM + C5 + eculizumab; shoulder near 9.3 min; the complex also holds eculizumab [panel D].
The target is the same in test [12]. As to the kind of experiment: SEC-MALS of eculizumab + C5 + crovalimab mimetic; hypothetical complex drawn with 5 antibodies and 4 C5; predicted size 1649 kDa.

Regarding mAb crovalimab mimetic (antibody), the Observed size (kDa) in test [1] is 1280 kDa; in test [5] it was 540 kDa; in test [10] it was 921 kDa; in [12], 1570 kDa. Further, the molar mass of complex peak (MALS) in [2] worked out at 517 kDa; in [3], 1230 kDa; in [4] it was 1570 kDa; in [6], 540 kDa; in test [7], 921 kDa; in test [8], 1280 kDa. In addition, the molar mass of complex peak (MALS) in test [9] came to 869 kDa; in [11] it was 1560 kDa.
